Data as given in ChEMBL document CHEMBL4842333, “Catechol-Bearing Polyketide Derivatives from Sparticola junci” (2021).

Test system: Pseudomonas aeruginosa
Conditions: DSMPA14

GENTAMICIN
MIC: 0.5 µg/mL
